The values below come from PubChem BioAssay AID504832 (National Center for Advancing Translational Sciences (NCATS), 2011).

The list shows a part of the results, in another mix than the full data. Some tests of the compounds listed are not included; inactive here does not mean inactive elsewhere. Results filed as inconclusive are left out. Active and inactive are the calls of the source. Calls follow the shape of the dose curve; as a rule, active = well fitted inhibition curve with a large enough effect; inconclusive = small, poorly fitted or top-dose-only effect, or another doubt; inactive = no such curve, though single readings can be large or run the other way.
Potency is read from the fitted curve at half-maximal effect.

The assay is described as follows: Primary qHTS for delayed death inhibitors of the malarial parasite plastid, 48 hour incubation. To be noted: P. falciparum luciferase growth in erythrocytes. An excerpt:
The goal of this screen is to discover new antimalarial compounds that act by inhibiting the development of the apicoplast in the malarial parasite Plasmodium falciparum. The biochemical processes that make this organelle essential for erythrocytic stage parasites are not well understood. However, antibiotics such as azithromycin and tetracycline, which target the apicoplast translational machinery, have a potent antimalarial effect.
We have developed a cell-based assay that measures parasite growth based on the expression of an integrated copy of a firefly luciferase reporter. To detect small molecules that cause this "delayed death" phenotype, erythrocytes infected with the luciferase-expressing parasites were incubated with compounds for either one or two generations, corresponding to 48 and 96 hours, respectively. […] Growth inhibition is detected by a decrease in luciferase activity. […]
Four microliters of culture medium (RPMI 1640 with 0.5% w/v Albumax (GIBCO), 24 mM sodium bicarbonate and 10 ug/mL gentamycin) were dispensed by a Multi-drop Combi into white solid 1536-well plates (Grenier) and 23 nL compound was added by a pin tool. […] Two microliters of luciferase detection reagent was added and luminescence was detected by a ViewLux (PerkinElmer) reader.
For the compound `COc1ccc(Br)c(C(=O)NCC2(N3CCCCC3)CCCCC2)c1`, the Potency is active: 13.1 µM.
